Laboratory results taken from ChEMBL document CHEMBL2321749, “Incorporation of rapid thermodynamic data in fragment-based drug discovery” (J Med Chem, 2013).

Amino acid sequences for entries named in this document (tags omitted).
UniProt P28482, whole entry: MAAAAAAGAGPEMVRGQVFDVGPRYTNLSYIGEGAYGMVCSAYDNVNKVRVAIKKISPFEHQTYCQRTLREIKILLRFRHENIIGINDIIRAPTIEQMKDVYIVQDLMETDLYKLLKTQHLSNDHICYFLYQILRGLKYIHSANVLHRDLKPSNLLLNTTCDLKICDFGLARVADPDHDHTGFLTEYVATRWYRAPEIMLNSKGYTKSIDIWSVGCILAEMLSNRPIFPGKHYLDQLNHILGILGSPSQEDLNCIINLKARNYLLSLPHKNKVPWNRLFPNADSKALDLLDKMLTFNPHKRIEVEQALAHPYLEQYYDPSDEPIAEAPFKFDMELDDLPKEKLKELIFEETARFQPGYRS

Biological target: Mitogen-activated protein kinase 1 (Homo sapiens, UniProt P28482)
Assay: Binding affinity to ERK2 (unknown origin) by isothermal titration calorimetry

Kd: 850 nM
SMILES: Nc1n[nH]c2nnc(-c3c(-c4ccccc4)nn4ccccc34)cc12
